# Laboratory results published in PubChem BioAssay AID1224863 (Southern Research Institute, 2016).
# The chains behind the UniProt entries cited, without tags or fusion partners. A line that says so, or that is headed by a name, gives the form on record, which may keep a tag or linker.
# UniProt P13569, with tags, fused parts or gaps F508del: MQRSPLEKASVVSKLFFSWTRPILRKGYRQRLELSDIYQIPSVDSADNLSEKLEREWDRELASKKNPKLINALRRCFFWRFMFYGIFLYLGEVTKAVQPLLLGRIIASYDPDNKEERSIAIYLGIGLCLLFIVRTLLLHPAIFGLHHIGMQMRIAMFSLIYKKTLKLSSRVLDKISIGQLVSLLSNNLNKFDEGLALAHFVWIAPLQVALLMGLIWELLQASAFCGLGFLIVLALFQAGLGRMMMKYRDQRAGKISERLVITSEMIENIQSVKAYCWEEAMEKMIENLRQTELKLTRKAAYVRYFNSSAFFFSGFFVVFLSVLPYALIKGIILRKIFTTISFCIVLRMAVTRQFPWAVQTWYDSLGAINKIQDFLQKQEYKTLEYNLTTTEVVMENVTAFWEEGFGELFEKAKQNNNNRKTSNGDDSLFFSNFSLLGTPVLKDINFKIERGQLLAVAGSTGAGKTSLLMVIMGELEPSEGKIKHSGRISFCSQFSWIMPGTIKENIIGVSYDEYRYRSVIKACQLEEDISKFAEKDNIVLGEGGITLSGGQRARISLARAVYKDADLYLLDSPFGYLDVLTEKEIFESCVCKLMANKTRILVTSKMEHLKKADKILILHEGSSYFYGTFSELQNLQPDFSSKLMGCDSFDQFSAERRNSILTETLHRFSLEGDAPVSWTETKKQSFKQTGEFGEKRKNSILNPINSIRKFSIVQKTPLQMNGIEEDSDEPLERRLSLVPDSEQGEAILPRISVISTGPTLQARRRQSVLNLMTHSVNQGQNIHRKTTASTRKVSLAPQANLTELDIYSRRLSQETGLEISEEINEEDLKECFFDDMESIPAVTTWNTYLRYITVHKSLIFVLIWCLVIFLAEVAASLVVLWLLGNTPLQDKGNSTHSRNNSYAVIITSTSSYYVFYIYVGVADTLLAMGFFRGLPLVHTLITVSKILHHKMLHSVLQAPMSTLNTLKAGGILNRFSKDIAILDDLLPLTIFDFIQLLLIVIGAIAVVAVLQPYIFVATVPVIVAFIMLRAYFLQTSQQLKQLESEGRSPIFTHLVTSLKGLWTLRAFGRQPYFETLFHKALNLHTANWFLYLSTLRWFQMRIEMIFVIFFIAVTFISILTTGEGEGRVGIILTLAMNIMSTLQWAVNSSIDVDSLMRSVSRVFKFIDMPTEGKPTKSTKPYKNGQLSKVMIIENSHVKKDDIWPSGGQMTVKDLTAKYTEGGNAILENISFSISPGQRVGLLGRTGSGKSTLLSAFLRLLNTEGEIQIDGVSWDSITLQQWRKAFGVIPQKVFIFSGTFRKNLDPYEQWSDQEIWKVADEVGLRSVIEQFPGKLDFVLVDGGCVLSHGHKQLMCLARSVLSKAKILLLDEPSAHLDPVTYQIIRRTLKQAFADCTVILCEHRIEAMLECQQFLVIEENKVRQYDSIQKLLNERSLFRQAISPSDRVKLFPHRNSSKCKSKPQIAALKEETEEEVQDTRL
# The campaign covered roughly 10,000 compounds. About 15 (0.1%) were called active.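 The calls were made as follows: active = highest signal at least 8 times the median of untreated cell-only control wells at some dose; inactive = the rest.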 Not all results are given here.
# Assays:
# [1] = compounds raising F508del-CFTR protein level – cell-based, HeLa F508del-CFTR, immunofluorescence, viability, primary screen (AID 1224863); settings: immunofluorescence total CFTR, 24 h, stronger effect = higher value; min viability: measured here: HeLa viability, alamarBlue, dose 20, library dosed in µg/mL unless noted; viability: measured here: primary viability 10 ug/mL, library dosed in µg/mL unless noted;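 as to fold increase: total CFTR protein by anti-CFTR immunofluorescence in fixed cells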
# [2] = molecular target: Cystic fibrosis transmembrane conductance regulator (Homo sapiens) (UniProt P13569); assay: as above; settings: immunofluorescence total CFTR, 24 h; fold increase: measured here: primary screen 10 ug/mL, library dosed in µg/mL, stronger effect = higher value unless noted; max fold increase: dose 10, library dosed in µg/mL, stronger effect = higher value unless noted; outcome: library dosed in µg/mL unless noted
Structure (SMILES),viability [1],fold increase [2],outcome [2]
Cc1noc2nc(-c3ccco3)cc(C(=O)OCc3cc(=O)n4cc(Cl)ccc4n3)c12,101%,1.11,inactive
CC1(c2ccccc2)NC(=O)N(Cc2cc(=O)n3ccccc3n2)C1=O (stereo not given),91%,1.06,inactive
Cn1ncc2c(NCC3(N4CCCCC4)CCCCC3)ncnc21,96%,1.05,inactive
CC(C(=O)NC1CCCCCC1)N1CCN(C(C)C(=O)NC2CC2)CC1 (stereo not given),95%,1.06,inactive
Fc1ccc(-c2[nH]ncc2CNCc2ccccc2Cn2cncn2)cc1,104%,1.01,inactive
CC(c1nnc(-c2cccs2)o1)N1CCC(O)CC1 (stereo not given),99%,1.04,inactive
Cn1cc(S(=O)(=O)N2CCN(Cc3nc(N)nc(N)n3)CC2)cc1C(N)=O,91%,0.98,inactive
Cn1c(SCc2ccc(-n3cccn3)cc2)nc2ccccc21,92%,0.97,inactive
Cc1sc2nc(CN3CCCC3)nc(-n3nnc(-c4cccnc4)n3)c2c1C,84%,1.04,inactive
Cc1cc(C)cc(-c2nnc(SC3CCCCC3=O)o2)c1 (stereo not given),112%,1.07,inactive
CC1Oc2ccc(NC(=O)C3=NN(C)C(=O)CC3)cc2NC1=O (stereo not given),100%,0.99,inactive
Cc1ccc(C)c(CS(=O)(=O)Cc2ccccc2SC(F)F)c1,86%,1.03,inactive
Cc1oc(C)c(C(=O)Nc2ncn[nH]2)c1C,86%,0.86,inactive
CC1CCC(NC(=O)c2ccc([N+](=O)[O-])s2)CC1 (stereo not given),77%,0.76,inactive
Cc1ccc(-n2nnnc2SCc2cn3cccc(C)c3n2)cc1C,79%,0.98,inactive
C=CCOc1ccc(/C(O)=C2/C(=O)C(=O)N(CCCN(C)C)C2c2cccc(Br)c2)cc1 (stereo not given),91%,1.07,inactive
O=S(=O)(c1ccc2ccccc2c1)N1CCN(S(=O)(=O)c2ccccc2Cl)CC1,94%,1.06,inactive
Clc1ccc(-c2nc(Sc3ccccc3Cl)c3c4c(sc3n2)CCC4)cc1,91%,1.15,inactive
Cc1c(C2Nc3ccccc3C(=O)N2c2ccc3c(c2)OCO3)cc(C#N)n1C (stereo not given),100%,1.05,inactive
O=C(O)CN1C(=O)COc2cc(Br)ccc21,101%,1.01,inactive
NC1CC(=O)N(c2ccc(Oc3ccccc3)cc2)C1 (stereo not given),60%,0.71,inactive
Cc1cn2nc(NC3CCCC3)sc2n1,96%,0.88,inactive
COc1cc(OC)c(CNC(C)c2ccc(F)cc2F)c(OC)c1 (stereo not given),103%,1.05,inactive
CSc1ccc(OCC(=O)c2[nH]c(C)c(C(C)=O)c2C)cc1,77%,0.86,inactive
COCCn1c(SCC(=O)c2[nH]c(C)c(C(C)=O)c2C)nc2sc3c(c2c1=O)CCCC3,102%,1.01,inactive
CCCn1c(N)c(C(=O)CN2CCC(O)CC2)c(=O)[nH]c1=O,91%,1.07,inactive
COC(=O)c1ccc(C2NC(=O)NC(C)=C2C(=O)c2ccc(Cl)cc2)cc1 (stereo not given),87%,1.02,inactive
N#CCCN1CCN(C(=O)C23CC4CC(CC(C4)C2)C3)CC1,86%,1.05,inactive

Structure (SMILES),viability [1],fold increase [2],outcome [2]
Cc1nn(Cc2ccccc2Cl)c(C)c1CN(C)c1ccc2nnnn2n1,101%,0.94,inactive
O=C1c2ccccc2S(=O)(=O)NN1Cc1ccc(Br)cc1,110%,0.99,inactive
Cc1ccc(-c2nnc(NCCC(C)C)c3ccccc23)cc1C,97%,0.94,inactive
CSc1ncccc1C(=O)NC1CC2CC1C1CCCC21 (stereo not given),103%,1.14,inactive
C=CCNC(=O)NC(=O)CN(Cc1nccn1C(F)F)C1CC1,83%,1.18,inactive
C=CCn1c(SCC)nnc1-c1ccc([N+](=O)[O-])cc1,88%,1.02,inactive
CC(OC(=O)C1=Cc2ccccc2OC1)C(=O)C12CC3CC(CC(C3)C1)C2 (stereo not given),91%,1.1,inactive
O=C1C2CCCCC2C(=O)N1CC(O)COCc1ccc2c(c1)OCO2 (stereo not given),99%,1.1,inactive
C=CCNCC(F)(F)F,95%,1.07,inactive
O=S(=O)(C1=Cc2ccccc2CC1)N1CCCC1c1ccc(F)cc1 (stereo not given),97%,0.99,inactive
CCCN(CC1CC1)C(=O)CSc1nc(C)nc2sc3c(c12)CCCC3,81%,0.94,inactive
CC1CCCN(S(=O)(=O)N2CCC(N3CCCc4ccccc43)CC2)C1 (stereo not given),82%,0.89,inactive
O=C(C1CCCO1)N1CCN(Cc2ccc3c(c2)CCO3)CC1 (stereo not given),90%,1.05,inactive
O=c1oc2ccc([N+](=O)[O-])cc2n1CN1CCN(c2cccc(Cl)c2)CC1,82%,0.77,inactive
Cc1ccc(C2(C)NC(=O)N(Cc3coc(-c4ccc(C)cc4C)n3)C2=O)cc1 (stereo not given),85%,0.96,inactive
O=S(=O)(Nc1cc2c(cc1Br)OCCO2)c1ccc(Br)cc1,88%,1.03,inactive
Cc1cc(C)n2c(SCc3cc(-c4ccccc4)on3)nnc2n1,97%,1.06,inactive
CCCCS(=O)(=O)Nc1ccc(F)c(N)c1,102%,0.96,inactive
O=C(CNC(=O)c1ccco1)NC1CCC2CCCCC2C1 (stereo not given),75%,1.02,inactive
Cc1cc(C(=O)CSc2nnc(-c3ccoc3C)o2)c(C)s1,84%,0.89,inactive
O=C(CSc1nnnn1C1CC1)NC(c1cccs1)C1CCCC1 (stereo not given),90%,0.94,inactive
CCOC(=O)c1oc2ccccc2c1COC(=O)c1ccc2c(c1)CCC(=O)N2,81%,1,inactive
CCn1cnnc1SCCCCN1C(=O)c2ccccc2C1=O,106%,1.03,inactive
CC(=O)N1C=Cc2ccccc2C1CC(=O)Nc1cc2c(cc1Cl)OCO2 (stereo not given),89%,0.97,inactive
O=S(=O)(Cc1ccc(F)cc1Cl)C12CC3CC(CC(C3)C1)C2,104%,1.1,inactive
CCOCCCNc1nnc(SC(C(=O)NC(N)=O)C(C)C)s1 (stereo not given),97%,0.95,inactive
Cc1nc(CNC(C(=O)O)C(C)C)cs1 (stereo not given),88%,1.06,inactive
